Results taken from patent US12630563B2, “Macrocyclic RIP2-kinase inhibitors” (Oncodesign S.A., priority 2020, dated 2026).

Chains of the proteins cited; added tags and fusions are not shown.
UniProt Q12809, whole entry: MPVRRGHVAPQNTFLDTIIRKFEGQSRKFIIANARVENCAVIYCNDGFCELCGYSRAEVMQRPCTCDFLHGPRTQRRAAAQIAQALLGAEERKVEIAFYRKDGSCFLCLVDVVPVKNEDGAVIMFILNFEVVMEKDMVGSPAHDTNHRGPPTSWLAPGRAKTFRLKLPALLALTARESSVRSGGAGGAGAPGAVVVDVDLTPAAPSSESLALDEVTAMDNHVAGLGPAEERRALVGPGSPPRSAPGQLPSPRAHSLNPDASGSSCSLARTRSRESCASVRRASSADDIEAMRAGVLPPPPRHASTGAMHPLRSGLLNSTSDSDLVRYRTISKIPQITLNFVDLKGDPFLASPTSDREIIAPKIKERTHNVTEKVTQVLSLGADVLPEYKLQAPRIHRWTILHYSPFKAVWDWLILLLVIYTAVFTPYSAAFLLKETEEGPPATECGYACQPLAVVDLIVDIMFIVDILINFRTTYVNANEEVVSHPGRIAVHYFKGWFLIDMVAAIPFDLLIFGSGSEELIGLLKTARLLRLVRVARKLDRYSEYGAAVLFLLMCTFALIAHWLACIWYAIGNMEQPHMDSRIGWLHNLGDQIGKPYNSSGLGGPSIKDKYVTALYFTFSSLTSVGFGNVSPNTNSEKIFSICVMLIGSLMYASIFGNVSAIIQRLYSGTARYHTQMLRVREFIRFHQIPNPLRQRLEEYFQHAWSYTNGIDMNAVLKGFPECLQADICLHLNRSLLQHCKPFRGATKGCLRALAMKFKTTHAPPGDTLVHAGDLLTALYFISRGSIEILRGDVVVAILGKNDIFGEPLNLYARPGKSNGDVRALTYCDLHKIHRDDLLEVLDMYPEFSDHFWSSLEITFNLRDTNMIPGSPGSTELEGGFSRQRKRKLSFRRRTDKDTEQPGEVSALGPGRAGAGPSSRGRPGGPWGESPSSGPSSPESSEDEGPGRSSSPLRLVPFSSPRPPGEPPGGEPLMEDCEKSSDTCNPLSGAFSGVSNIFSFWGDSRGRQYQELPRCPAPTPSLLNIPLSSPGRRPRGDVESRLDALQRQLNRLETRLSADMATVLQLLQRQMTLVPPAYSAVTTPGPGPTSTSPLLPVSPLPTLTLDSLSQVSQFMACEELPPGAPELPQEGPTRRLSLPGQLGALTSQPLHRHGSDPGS

Assays:
[1] = Human protein binding free fraction (Assay A, RED plate equilibrium dialysis)
Method: Human protein binding protocol: Compound was added to plasma or brain homogenate and incubated at 2 μM at 37° C. in the RED plate (Thermo n° 96009, cut-off 8000 Da) against PBS buffer. After 4 h, aliquots of plasma and buffer side were transferred to a well containing acetonitrile with an internal standard. After protein precipitation, samples were centrifuged and supernatant was injected in LC/MS/MS. Standards were prepared in the same matrix and treated as samples.
A fraction unbound (fuplasma) was determined for each plasma sample as follows: […]

[2] = Human Clint, microsomal metabolic stability (Assay B); conditions: pooled liver microsomes 0.5 mg/mL, 0.5 μM compound, NADPH
Method: Human Clint protocol: Pooled liver microsomes (Sekisui Xenotech) were diluted at 0.5 mg/mL in 50 mM phosphate buffer, pH 7.4 then pre-incubated with 0.5 μM […] for 7 min at 37° C. The reactions were initiated by adding prewarmed cofactor (0.44 mM NADPH). Aliquots of samples were taken at 0, 5, 10, 20 and 45 min and the reactions stopped by addition of cold acetonitrile containing an internal standard. Samples were centrifuged at 3000 g for 10 min at 4° C. and then supernatants were analyzed by LC/MS/MS for the amount of parent compound remaining.

[3] = target: hERG potassium channel (Homo sapiens, UniProt Q12809); experiment: hERG q-patch assay (Assay C, Sophion Qube automated electrophysiology); conditions: read-out: Assay C: hERG q-patch inhibition IC50
Method: hERG q-patch assay protocol: The potential for test compound to inhibit the hERG potassium channel was determined using the Charles River ChanTest® hERG-HEK stably transfected cell line on the Sophion Qube automated electrophysiology platform. The assay was performed at room temperature and recordings of the hERG tail current from a population of cells were made using multi-hole QChips.

SMILES	Assay A: Human protein binding free fraction (F %) [1]	Assay B: Human Clint (hCl) [2]	IC50 [3] [µM]
Clc1cc2cc(c1)-c1cnn3ccc(nc13)NC[C@@H]1CCCN1CCO2	+ (+ indicates F % below 0.1%)	+ (+ indicates hCl above 18 ug/min/mg prot)	1 to 10
Fc1cc2cc(c1)-c1cnn3ccc(nc13)NC[C@@H]1CCCN1CCCO2	+ (+ indicates F % below 0.1%)	+ (+ indicates hCl above 18 ug/min/mg prot)	< 11
